Screening results (PubChem)
CendR NRP1 mod: alters CendR peptide binding to human NRP-1 | inhibition, % at 25 µM | FAM-RPARPAR peptide binding to NRP-1, fluorescence polarization | 360,000 tested, 0.85% active | O14786 | AID 602438;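 active = inhibition or corrected inhibition above about 18%, plus a signal ratio from 0.5 to 1.5, limit read from the data, passing the limit was not always enough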
MC4R barr agon: activates human MC4R beta-arrestin recruitment | 360,000 tested, 0.98% active | P32245 | AID 540308 | activation, % at 8.9 µM | U2OS MC4R beta-arrestin complementation, luminescence; percent of melanotan II response, DMSO zero;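 active = activation above a per-plate cutoff, the mean activation of sample wells on that plate plus 3 SD, cut at about 8% in these data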
Yeast UUG start: modulators of start codon recognition fidelity in yeast; S. cerevisiae UUG-firefly luciferase reporter, luminescence/redox ratio; AID 602363; 350,000 tested, 0.13% active; activity score, % at 18.7 µM;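 active = replicate mean at a twofold rise or more, about +100% in these data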;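 also: firefly luciferase made from a UUG start codon reports start codon fidelity; reporter light over untreated wells divided by growth signal over untreated wells; some hits fall short of that in this replicate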
ARFGAP1 inh: inhibits rat ARF GTPase activating protein 1 | Arfgap1-stimulated ARF1 GTP hydrolysis, GDP FP detection | inhibition, % at 16.5 µM | 360,000 tested, 0.26% active | AID 651572;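 active = inhibition above a per-plate limit, mean inhibition of low control wells plus 3 SD, cut at about 25% in these data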;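 also: 0% = DMSO wells with enzyme and 100% = wells lacking Arfgap1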
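system = rat Arfgap1 catalytic domain, aa 1-136 | technique = FP, GDP Alexa 633 tracer displaced from anti-GDP antibody, 620/688 nm | compound = one concentration, 16.5 µM, DMSO 1.26% | medium = HEPES-based buffer, pH 7.5 | timing = compound-enzyme preincubation 20 min, reaction 120 min, detection 60 min, 25 °C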
ASAP1 inh: inhibitors of human ASAP1 ArfGAP activity | ASAP1-stimulated ARF1 GTP hydrolysis, GDP FP detection | inhibition, % at 16.5 µM | AID 624377 | 360,000 tested, 0.19% active; in the data active = inhibition above about 25%;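 also: 0% = vehicle with enzyme and substrate and 100% = no enzyme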
MC4R antagonist: human MC4R antagonism in cAMP assay. MC4R-expressing cells, MTII-stimulated cAMP, LANCE TR-FRET. 360,000 tested, 0.48% active. inhibition, % at 6.5 µM. P32245;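 active = inhibition above its plate's cutoff, the mean of tested wells on that plate plus 3 SD, cut at about 29% in these data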;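 also: 0% = Melanotan II alone and 100% = Melanotan II plus saturating MCL0020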
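System: U2OS-MC4R stable cell line; Technique: Eu-cAMP/anti-cAMP TR-FRET, emission 671 nm; Repeats: single well per compound; Also added: Melanotan II; Dosing: one concentration, 6.5 µM nominal; Schedule: 30-min compound, 1-h challenge, 1-h detection, room temperature.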
MC4R barr conf: human MC4R beta-arrestin agonism confirmation; shares compounds with MC4R barr agon; activation, % at 8.9 µM; U2OS MC4R beta-arrestin recruitment, luminescence; scaled DMSO 0%, Melanotan II 100%; 2,400 tested, 31% active;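 active = mean activation across replicates above the hit cutoff set in the earlier primary screen, cut at about 8% in these data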
MOR-DOR barr ag: counter-screen for MC4R agonists: agonists of mu-delta opioid heterodimer; shares compounds with MC4R barr agon; U2OS PathHunter beta-arrestin, beta-gal luminescence; percent of deltorphin B response, DMSO zero; activation, % at 9.2 µM; 2,400 tested, 5.8% active;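 active = mean activation across replicates exceeds the hit threshold derived in the earlier primary screen, cut at about 18% in these data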;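 also: 100% = deltorphin B at 0.9 µM final and 0% = DMSO alone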
The depositor's hits bear a star; x = not tested or not shown. A selection: hits, their analogues and other compounds. The true share with any hit is near 2.3%.

SMILES | CendR NRP1 mod | MC4R barr agon | Yeast UUG start | ARFGAP1 inh | ASAP1 inh | MC4R antagonist | MC4R barr conf | MOR-DOR barr ag
O=C(NCCC1=CCCCC1)c1cc(S(=O)(=O)N2CCOCC2)c(Cl)cc1Cl | 3 | 10* | 11 | -1 | -10 | 5 | 0 | 5
Cc1nn(C)c(C(=O)Nc2ccc(Br)cc2F)c1Br | 18 | 13* | x | x | x | 7 | 0 | 4
Cc1occc1C(=O)Nc1ccc(Br)cc1F | -6 | 0 | -11 | -8 | 15 | 1 | x | x
O=C(CSc1nnnn1-c1ccc(F)cc1)Nc1nc2ccccc2s1 | -6 | 31* | -15 | -2 | -3 | 5 | 0 | 8
CCn1nnnc1SCC(=O)Nc1nc2ccccc2s1 | -1 | 2 | x | -6 | 19 | 11 | x | x
O=C(CSc1nc2ccc(NC(=O)CSc3nnnn3-c3ccccc3)cc2s1)Nc1ccccc1 | -15 | 14* | -14 | 18 | 14 | 18 | 8 | 4
C[C@H]1CN([C@@H](C)CO)C(=O)c2cc(C#CC3CC3)cnc2O[C@@H]1CN(C)Cc1ccccn1 | x | x | -14 | x | x | x | x | x
CCOC(=O)Cc1csc(N/N=C/c2cccc([N+](=O)[O-])c2)n1 | 6 | 14* | -14 | -5 | -9 | -4 | 0 | 10
O=[N+]([O-])c1cccc(-c2csc(N/N=C/c3cccc(O)c3)n2)c1 | 5 | 11* | x | 11 | 2 | -1 | 9.8* | 9
CCOC(=O)Cc1csc(NC(=O)c2cccc([N+](=O)[O-])c2)n1 | -9 | -2 | -4 | 1 | 2 | 1 | x | x
CC(=O)c1sc(N/N=C/c2cccc([N+](=O)[O-])c2)nc1C | 3 | -2 | -23 | 7 | -2 | 4 | x | x
C=CCSc1nc2c(c(=O)[nH]c(=O)n2C)n1Cc1ccc(C)cc1 | 6 | 14* | -13 | -1 | -10 | -42 | 1 | 6
CCCSc1nc2c(c(=O)[nH]c(=O)n2C)n1Cc1ccc(C)cc1 | -16 | -1 | 40 | 8 | -6 | -9 | x | x
CC(C)(C)c1ccc(C(=O)Nc2ccc(NC(=O)c3ccco3)cc2)cc1 | -4 | 25* | -18 | 5 | -10 | 9 | 6 | 13
COc1ccccc1C(=O)NC(=S)Nc1ccc(NC(=O)c2cccs2)cc1 | -7 | 27* | x | 8 | 21 | 9 | 5 | 5
O=C(Nc1ccc(NC(=O)c2ccco2)cc1)c1ccco1 | -1 | 1 | -6 | 13 | 13 | 1 | x | x
CC(=O)NC(=S)Nc1ccc(NC(=O)c2cccs2)cc1 | -2 | -1 | x | -2 | 5 | 9 | x | x
O=C(NC(=S)Nc1ccc(S(=O)(=O)N2CCCCC2)cc1)c1cccs1 | 14 | 13* | x | -2 | -7 | -1 | -4 | 2
CCOc1ccc(C(=O)NC(=S)Nc2ccc(NC(=O)c3ccco3)c(C)c2)cc1[N+](=O)[O-] | 0 | 10* | x | 11 | 14 | 5 | 7 | 5
C[C@@H]1CN([C@@H](C)CO)C(=O)c2cccc(NS(=O)(=O)c3ccccc3)c2O[C@H]1CN(C)S(=O)(=O)c1ccc(Cl)cc1 | x | x | 16 | x | x | x | x | x
C[C@@H]1CN([C@H](C)CO)C(=O)c2cccc(NC(=O)Nc3ccc(C(F)(F)F)cc3)c2O[C@H]1CN(C)S(C)(=O)=O | x | x | 7 | x | x | x | x | x
C[C@H](CO)N1C[C@H](C)[C@H](CN(C)CC2CCCCC2)Oc2cc(C3=CCCC3)ccc2S1(=O)=O | x | x | 42 | x | x | x | x | x
CN1CCN(C(=O)C[C@@H]2CC[C@@H]3[C@H](COC[C@@H](O)CN3Cc3ccc4c(c3)OCO4)O2)CC1 | x | x | -1 | x | x | x | x | x
COc1ccccc1C(=O)NC(=S)Nc1ccc(NC(=O)c2ccco2)cc1 | -23 | 11* | -38 | 1 | -2 | 2 | 3 | 4
COc1cc(OC)cc(C(=O)Nc2ccc(NC(=O)c3ccco3)c(Cl)c2)c1 | -4 | 4 | -16 | 6 | 4 | 1 | x | x

As entered above:
Entry for O=C(CSc1nc2ccc(NC(=O)CSc3nnnn3-c3ccccc3)cc2s1)Nc1ccccc1 under MC4R barr conf: 8
Entry for O=[N+]([O-])c1cccc(-c2csc(N/N=C/c3cccc(O)c3)n2)c1 under ASAP1 inh: 2
Entry for O=C(Nc1ccc(NC(=O)c2ccco2)cc1)c1ccco1 under MC4R antagonist: 1
Entry for O=C(CSc1nnnn1-c1ccc(F)cc1)Nc1nc2ccccc2s1 under MC4R barr conf: 0

Sorted by length of the SMILES (high to low): three of the compounds above
SMILES | CendR NRP1 mod | MC4R barr agon | Yeast UUG start | ARFGAP1 inh | ASAP1 inh | MC4R antagonist | MC4R barr conf | MOR-DOR barr ag
O=[N+]([O-])c1cccc(-c2csc(N/N=C/c3cccc(O)c3)n2)c1 | 5 | 11* | x | 11 | 2 | -1 | 9.8* | 9
COc1ccccc1C(=O)NC(=S)Nc1ccc(NC(=O)c2ccco2)cc1 | -23 | 11* | -38 | 1 | -2 | 2 | 3 | 4
CCn1nnnc1SCC(=O)Nc1nc2ccccc2s1 | -1 | 2 | x | -6 | 19 | 11 | x | x
